Tested on: mammalian vacuolar-type (H+)-ATPase (from chromaffin granule membranes)
Experiment: mammalian vacuolar-type (H+)-ATPase inhibition, side-by-side test
Type: biochemical
Settings: mammalian versus fungal enzyme

CC/C=C\C=C/C(=O)N/C=C/CC1CC(O)C(C)C/C=C/Cc2cccc(O)c2C(=O)O1 (stereo not shown) [salicylihalamide A]
selectivity for mammalian versus fungal vacuolar-type (H+)-ATPase: highly selective

From US7381744B1, “Method of treating osteoporosis comprising vacuolar-type (H+)-ATPase-inhibiting compounds” (The United States of America as represented by the …, priority 1999, dated 2008)
